Results: patent US20240270732A1, “RECEPTOR-INTERACTING PROTEIN INHIBITOR, PREPARATION METHOD THEREFOR, AND USE THEREOF” (CHENGDU BIOBEL BIOTECHNOLOGY CO., LTD, priority 2021, published 2024)

The chains behind the UniProt entries cited, without tags or fusion partners.
UniProt Q13546, whole entry: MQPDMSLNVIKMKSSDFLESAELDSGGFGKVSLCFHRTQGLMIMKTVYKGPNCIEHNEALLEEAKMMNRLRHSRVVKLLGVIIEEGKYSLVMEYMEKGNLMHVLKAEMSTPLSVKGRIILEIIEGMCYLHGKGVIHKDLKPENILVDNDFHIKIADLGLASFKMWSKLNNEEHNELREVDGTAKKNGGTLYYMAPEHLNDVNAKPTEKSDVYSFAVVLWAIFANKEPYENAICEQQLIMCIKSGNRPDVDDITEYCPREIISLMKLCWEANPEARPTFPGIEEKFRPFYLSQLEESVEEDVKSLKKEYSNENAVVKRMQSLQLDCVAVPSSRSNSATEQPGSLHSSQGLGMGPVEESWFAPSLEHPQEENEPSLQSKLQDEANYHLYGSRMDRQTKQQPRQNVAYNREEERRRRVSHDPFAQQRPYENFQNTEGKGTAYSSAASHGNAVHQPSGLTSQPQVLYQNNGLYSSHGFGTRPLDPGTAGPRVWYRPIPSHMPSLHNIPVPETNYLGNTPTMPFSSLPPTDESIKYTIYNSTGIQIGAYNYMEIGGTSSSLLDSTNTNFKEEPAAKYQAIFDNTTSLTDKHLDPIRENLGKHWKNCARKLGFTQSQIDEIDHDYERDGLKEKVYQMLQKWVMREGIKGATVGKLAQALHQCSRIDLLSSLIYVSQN

Target: human RIP1 kinase (Homo sapiens (Human), UniProt Q13546)
Assay: Inhibitory activity on RIP1 kinase (ADP-Glo)
Assay type: biochemical
Settings: read-out: IC50, inhibitory activity on RIP1 kinase, human RIP kinase 25 nM

[2H]C([2H])([2H])N1C(=O)[C@@H](NC(=O)c2ncn(Cc3ccccc3)n2)[C@@H](C)Oc2ccc(C#CCN3CCN(CC#Cc4ccc5c(c4)N(C([2H])([2H])[2H])C(=O)[C@@H](NC(=O)c4ncn(Cc6ccccc6)n4)[C@@H](C)O5)CC3)cc21
pIC50: 8.36

C[C@H]1Oc2ccc(C#CCN3CCN(CC#Cc4ccc5c(c4)N(C)C(=O)[C@@H](NC(=O)c4ncn(Cc6ccccc6)n4)CO5)CC3)cc2N(C)C(=O)[C@H]1NC(=O)c1ncn(Cc2ccccc2)n1
pIC50: 8.33

pIC50: −log10 of the molar value.
